miR-21 reporter: miR-21 reporter, rising signal | HeLa miR-21 FLuc reporter, luciferase, 48 h | Potency, µM (doses to about 38.3 µM), inactives show at the top dose reporter change, positive = more light | 340,000 tested, under 10 active | AID 2288; active = well fitted rising curve with a large enough effect; inconclusive = small, poorly fitted or top-dose-only effect; inactive = no such curve, though single readings can be large or run the other way;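 note: % of control where 0% means no effect; miR-21 action dims this reporter so a rising signal means less miR-21 action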
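Luminescence from a firefly luciferase reporter carrying a miR-21 binding site downstream, stably expressed under a CMV promoter in HeLa cells that make miR-21 endogenously, reports miRNA modulation after 48 h compound exposure up to approximately 40uM final.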
Nrf2 block: inhibitors of Nrf2 signaling | hit rate 2.1% among 360,000 | Potency, µM (top dose mostly 46 µM), for the others: at the top dose activity change, negative = inhibition, actives largely listed as inhibitors | A549 ARE-Fluc reporter, luciferase luminescence, 18-24 h; further: potency means the concentration at half of the fitted maximal effect; on the % scale 0 is the no-effect control and ±100 the full control effect; nearly all actives have a fitted effect of over 60% in size
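Reporter: ARE-Fluc in A549. Exposure: 18-24 h, 37 °C, 5% CO2, 5% FBS OPTI-MEM. Readouts: fluorescent cytotoxicity (CellTiter-Fluor), then luminescent Nrf2 signal after BugLite.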
A549 tox: A549 cytotoxicity, counter-screen for Nrf2 inhibitors; A549 ARE-Fluc cells, CellTiter-Fluor viability, 18-24 h; Potency, µM (doses to about 46 µM), for inactives: at the top dose activity change, negative = cytotoxicity, actives largely listed as inhibitors; hit rate 0.16% among 390,000; AID 504648; further: potency means the concentration at half of the fitted maximal effect; on the % scale 0 is the no-effect control and ±100 the full control effect
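Cytotoxicity counterscreen: CellTiter-Fluor fluorescence was measured in A549 ARE_Fluc cells after 18-24 h of compound exposure in a concentration series. The subsequent BugLite luminescent read reports ARE-luciferase activity.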
ClpP mod: qHTS Assay for Activators of ClpP | ATP-dependent Clp protease proteolytic subunit (Bacillus subtilis (strain 168)), P80244 | purified B. subtilis ClpP, FRET peptide cleavage, 20 min | Potency, µM (titrated, usually from 57.5 µM), inactives show at the highest dose activity change, negative = active | hit rate 1.9% among 340,000 | AID 651965, 2013; active means well fitted falling curve with a large enough effect; inconclusive means small, poorly fitted or top-dose-only effect; inactive means no such curve, though single readings can be large or run the other way; further: potency means the concentration at half of the fitted maximal effect; the source files actives as falling curves though it sought activators and does not explain the sign; nearly all actives have a fitted effect of over 65% in size
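ClpP 10 microg/mL final, pH 8 Tris/KCl buffer with BSA, glycerol, Tween-20; compound pinned in; FRET-FV substrate; RT 20 min; Ex320/Em430; ΔFRET vs ADEP 5.8 microM, DMSO, no enzyme.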
p53 reactivation: mutant p53 re-activation in reporter cells. H1299 p53-A138V BP100-luciferase reporter, luminescence, 24 h. Potency, µM (series often up to 92.2 µM), for inactives: top-dose activity change, positive = activation, actives largely listed as activators. AID 504706. hit rate 0.063% among 320,000; further: potency means the concentration at half of the fitted maximal effect; % of control where 0% means no effect; nearly all actives have a fitted effect of over 45% in size
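H1299 (p53-null), stable ts p53-A138V + BP100-Luc; 1000 cells/well, Opti-MEM/10% FBS; cpd 4 pt, 1:5; 24 h, 37 deg C, 5% CO2; detection reagent 10 min RT; luminescence.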
Nrf2 activator: activates Nrf2 signaling; AREc32 ARE-luciferase reporter (MCF7-derived line), luminescence, 24 h; Potency, µM (titrated, usually from 46.1 µM), without a hit: top-dose activation, usual class: activators; hit rate 0.31% among 410,000; further: potency means the concentration at half of the fitted maximal effect; % of control where 0% means no effect; nearly all actives have a fitted effect of over 65% in size
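Luciferase luminescence (Steady-Glo, 30 min at room temperature) served as the read-out of ARE activation in AREc32 cells treated with compounds for 24 hr at 37 deg C.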
* marks the source's active call; other numbers are inactive results; ? = inconclusive; / = no result. Compounds with a hit are over-represented: about 3.7% of the library has one in this group of screens. Unless noted, the call rests on the fitted dose curve; in most records, active means well fitted curve in the direction sought with a large enough effect; inconclusive means small, poorly fitted or top-dose-only effect, or another doubt; inactive means no such curve, though single readings can be large; an effect the other way counts as inactive or inconclusive.

Chains of the proteins cited; added tags and fusions are not shown.
ATP-dependent Clp protease proteolytic subunit (Bacillus subtilis (strain 168)), P80244, UniProt P80244, whole entry, looked up: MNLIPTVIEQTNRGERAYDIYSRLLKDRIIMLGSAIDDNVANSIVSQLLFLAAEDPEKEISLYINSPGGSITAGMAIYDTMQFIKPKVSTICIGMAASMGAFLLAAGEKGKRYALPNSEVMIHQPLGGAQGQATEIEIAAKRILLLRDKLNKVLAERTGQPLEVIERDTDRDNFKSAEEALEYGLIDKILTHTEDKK

Assay codes: A = miR-21 reporter; B = Nrf2 block; C = A549 tox; D = ClpP mod; E = p53 reactivation; F = Nrf2 activator
molecule: C=CCn1c(C)cc(C(=O)COc2ccc(C)nc2[N+](=O)[O-])c1C
  A: 21% | B: ? | C: -5% | D: 4µM* | E: ? | F: -1%
molecule: CCCn1c(C)cc(C(=O)COc2ccc(C)nc2[N+](=O)[O-])c1C
  A: -37% | B: 21% | C: 1% | D: 1% | E: ? | F: 4%
molecule: C[C@H](NC(=O)C1CCN(S(=O)(=O)c2ccccc2)CC1)C(=O)NCc1cccnc1
  A: / | B: / | C: / | D: -3% | E: / | F: 1%
molecule: CC(C)C1C(=O)Nc2ccc(S(=O)(=O)NCc3ccc(Cl)cc3)cc21 (stereo not given)
  A: 11% | B: 21µM* | C: 2% | D: 15% | E: / | F: -1%
molecule: CCOc1ccc(Cn2nnc3c(=O)[nH]c(C4CCN(C(=O)c5ccccc5)CC4)nc32)cc1
  A: 1% | B: 7% | C: 0% | D: 104% | E: / | F: 1%
molecule: Cc1ccc(C)c(C(=O)c2c(N)c(-c3nc(-c4ccc5c(c4)OCO5)cs3)c3ccccn23)c1
  A: -2% | B: 3% | C: 5% | D: 0% | E: / | F: 0%
molecule: NNc1nc(-c2ccccc2)nc2sc3c(c12)CCCC3
  A: -69% | B: ? | C: 8% | D: -8% | E: ? | F: 1.4µM*
molecule: NNc1nc2sc3c(c2c(=O)n1Cc1ccccc1)CCC3
  A: -17% | B: 10% | C: 2% | D: / | E: 2% | F: 0%
molecule: CC1CCCCC1NC(=O)c1cc2c(=O)n3ccccc3nc2n1C (stereo not given)
  A: -14% | B: ? | C: 1% | D: 4% | E: 27% | F: 3%
molecule: CC1CC(NC(=O)c2cc3c(=O)n4ccccc4nc3n2C)CC(C)(C)C1 (stereo not given)
  A: -4% | B: 21µM* | C: 16% | D: / | E: -4% | F: 0%
molecule: Cc1nc(N2CCN(c3ccccn3)CC2)c2c(C)c(C(=O)N3CCN(c4ccc(F)cc4)CC3)sc2n1
  A: ? | B: 18µM* | C: -10% | D: / | E: 0% | F: 3%
molecule: COc1ccccc1N1CCN(C(=O)c2sc3nc(C)nc(N4CCN(c5ccccn5)CC4)c3c2C)CC1
  A: 26% | B: 15µM* | C: -23% | D: -2% | E: -2% | F: 2%
molecule: O=C(COc1ccccc1)N1CCN(c2ncccn2)CC1
  A: 1% | B: -2% | C: 0% | D: / | E: -1% | F: 1%
molecule: Cc1nc(N2CCN(C(=O)COc3ccccc3)CC2)c2c(C)c(C)sc2n1
  A: ? | B: 21µM* | C: -29% | D: 1% | E: -2% | F: -1%
molecule: COc1ccccc1N1CCN(C(=O)c2sc3ncnc(N4CCN(c5ccccn5)CC4)c3c2C)CC1
  A: 24% | B: ? | C: -8% | D: / | E: -5% | F: -1%
molecule: CCOc1ccc(CNC(=O)c2cnc3sc(N(CC)CC)nn3c2=O)cc1OC
  A: -5% | B: -29% | C: 7% | D: 32µM* | E: / | F: -1%
molecule: CCOc1ccc(CNC(=O)c2cnc3sc(N4CCOCC4)nn3c2=O)cc1
  A: 0% | B: 29% | C: -3% | D: 13% | E: / | F: -1%
molecule: COCCCNC(=O)c1cnc2sc(N3CCCCC3)nn2c1=O
  A: -5% | B: ? | C: 7% | D: 4% | E: / | F: 0%
molecule: COc1ccc(CCNC(=O)c2cnc3sc(N4CCCC4)nn3c2=O)cc1OC
  A: 4% | B: -20% | C: -7% | D: 11µM* | E: / | F: 5%
molecule: CCOc1ccc(CNC(=O)c2cnc3sc(N4CCOCC4)nn3c2=O)cc1OC
  A: 1% | B: ? | C: 14% | D: 28µM* | E: / | F: 0%
molecule: CC(C)CCNC(=O)c1cnc2sc(N3CCCCCC3)nn2c1=O
  A: 13% | B: -16% | C: -14% | D: 13µM* | E: / | F: 0%
molecule: Cc1nc2cccnc2n1-c1cccc(C(=O)NCc2cccc(Cl)c2)c1
  A: 13% | B: -12% | C: 14% | D: -2% | E: / | F: 1%
molecule: O=C(Nc1cc(Cl)ccc1-n1cncn1)c1ccc([N+](=O)[O-])o1
  A: / | B: 10% | C: -5% | D: 1% | E: -21% | F: 13µM*
molecule: CN1CCN(c2ccccc2NC(=O)c2ccc([N+](=O)[O-])o2)CC1
  A: 11% | B: -7% | C: -14% | D: -2% | E: 29% | F: -2%
molecule: CCC(=O)N1CCN(c2ccc(Cl)cc2NC(=O)c2ccc([N+](=O)[O-])o2)CC1
  A: 12% | B: -4% | C: -5% | D: 2% | E: 17% | F: 11µM*
molecule: CS(=O)(=O)N1CCN(c2ccccc2NC(=O)c2ccc([N+](=O)[O-])o2)CC1
  A: 7% | B: -14% | C: 0% | D: / | E: 10% | F: 8.9µM*
molecule: Cc1ccccc1C(=O)N(Cc1sccc1C)C1CCS(=O)(=O)C1 (stereo not given)
  A: 2% | B: 2% | C: 0% | D: -1% | E: / | F: 1%
molecule: CC[C@H](C)[C@H](NC(N)=O)C(=O)Nc1ccc(OC)c(Cl)c1
  A: 5% | B: -11% | C: -1% | D: -5% | E: -3% | F: 5%
molecule: CCC(C)C(NC(N)=O)C(=O)Nc1ccc(C)c(Cl)c1 (stereo not given)
  A: 1% | B: -1% | C: 10% | D: 28µM* | E: -19% | F: -1%
molecule: O=C(/C=C/c1ccccc1)NC(NC(=S)Nc1cc(Cl)ccc1Cl)C(Cl)(Cl)Cl (stereo not given)
  A: 23% | B: 4.1µM* | C: ? | D: -2% | E: -5% | F: 9%
molecule: CNC(=S)N(CCc1c(C)[nH]c2ccc(OC)cc12)Cc1cc(OC)c(OC)c(OC)c1
  A: -4% | B: -14% | C: 0% | D: -7% | E: -1% | F: 0%
molecule: CCNC(=S)N(CCc1ccc(OC)c(OC)c1)Cc1cc2cc(OC)ccc2[nH]c1=O
  A: -3% | B: -4% | C: -3% | D: / | E: -4% | F: 4%
molecule: CNC(=S)N(CCc1ccccc1)Cc1cc2cc(OC)c(OC)cc2[nH]c1=O
  A: -12% | B: 17% | C: -1% | D: 35µM* | E: -6% | F: 2%
molecule: CNC(=S)N(CCc1c(C)[nH]c2ccc(C)cc12)Cc1cc(OC)c(OC)c(OC)c1
  A: -2% | B: 23µM* | C: ? | D: -5% | E: -6% | F: 0%
molecule: CC(=O)N(CCc1ccccc1C)Cc1cc2cc3c(cc2[nH]c1=O)OCO3
  A: -7% | B: 3% | C: 1% | D: 28µM* | E: -1% | F: 0%
molecule: CCNC(=S)N(CCc1cccc(C)c1)Cc1cc2cc(OC)c(OC)cc2[nH]c1=O
  A: -4% | B: 23µM* | C: -12% | D: 18µM* | E: -4% | F: 0%
molecule: CNC(=S)N(Cc1ccco1)Cc1cc2cc(OC)c(OC)cc2[nH]c1=O
  A: -5% | B: ? | C: 11% | D: / | E: -1% | F: 0%
molecule: COc1ccc(CNC(=O)c2cc3c(=O)[nH]c4ccccc4c3n2C)c(OC)c1
  A: 12% | B: -8% | C: -5% | D: -14% | E: / | F: 0%
molecule: CCOc1ccccc1C1CC(=O)Nc2c1c(=O)n(C)c1ncnn21 (stereo not given)
  A: 2% | B: -29% | C: -8% | D: -5% | E: / | F: -2%
molecule: COc1cc2cc(CN(CCc3ccccc3C)C(=S)NCCCN(C)C)c(=O)[nH]c2cc1OC
  A: -6% | B: -18% | C: 1% | D: 14µM* | E: -19% | F: 4%
molecule: CCNC(=S)N(CCc1ccccc1C)Cc1cc2cc(OC)c(OC)cc2[nH]c1=O
  A: 2% | B: -4% | C: 3% | D: ? | E: -12% | F: -1%
molecule: O=C(Nc1ccc(CN2CCS(=O)(=O)CC2)cc1)c1ccccc1
  A: -12% | B: 7% | C: 1% | D: -1% | E: -2% | F: 0%

Record cards, as listed above:
Shown for `Cc1nc(N2CCN(c3ccccn3)CC2)c2c(C)c(C(=O)N3CCN(c4ccc(F)cc4)CC3)sc2n1` : miR-21 reporter = ?; Nrf2 block = 18µM*; A549 tox = -10%; ClpP mod = /; p53 reactivation = 0%; Nrf2 activator = 3%
Shown for `CCOc1ccccc1C1CC(=O)Nc2c1c(=O)n(C)c1ncnn21` (stereo not given) : miR-21 reporter = 2%; Nrf2 block = -29%; A549 tox = -8%; ClpP mod = -5%; p53 reactivation = /; Nrf2 activator = -2%

Screens: PubChem BioAssay, National Center for Advancing Translational Sciences (NCATS)
